Experimental data from PubChem BioAssay AID1949 (Southern Research Institute, 2009).
About 1,600 (1.6%) of roughly 100,000 compounds were called active. These results got no clear call from the source, so the numbers are uncertain. The rule behind the calls is not given here.

Assay: Confirmatory growth inhibition assay against Mycobacterium tuberculosis H37Rv, potency (AID 1949);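 note: bacteria grown 7 days with compound before Alamar blue readout; 0% = untreated bacteria wells and 100% = bacteria with saturating antibiotic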
Settings: M. tuberculosis H37Rv growth inhibition; stronger effect = higher value; concentration not given here

With `O=C(NC(SC1=NCCS1)C(Cl)(Cl)Cl)c1ccc(I)cc1` (stereo unspecified) as the compound, how does the inhibition read?
The inhibition was inconclusive: 66.2%.
